These are literature values, as cited in PMC11452715, “Pharmacokinetic and pharmacodynamic evaluation of various vasopressin doses and routes of administration in a neonatal piglet model” (Scientific Reports, 2024).

For this data set the following is noted: in vivo; cited from earlier work.

Turning to “1-deamino-8-D-arginine vasopressin [DDAVP]”, the bioavailability entry is “approximately 10%” and the “time of peak plasma concentrations after drug administration” value is 1 to 2 h.
